Laboratory results from US9161990B2, “Hydrochloride salts of a glycopeptide-cephalosporin antbiotic compond” (THERAVANCE BIOPHARMA ANTIBIOTICS IP, LLC, priority 2013, dated 2015).
Where a name gives a salt, the structure may show the parent alone. Values belong to the compound of their own block, whether it stands above or below them.

Columns and labels:
[1] = Storage stability of lyophilized hydrochloride salts (purity by HPLC); format: physicochemical
Experimental: (§1) Test samples were assayed for 26-[[[3-[[(Z)-[1-(2-amino-5-chloro-4-thiazolyl)-2-[[(6R,7R)-2-carboxy-8-oxo-3-(pyridiniomethyl)-5-thia-1-azabicyclo[4.2.0]-oct-2-en-7-yl]amino]-2-oxoethylidene]amino]oxy]propyl]amino]carbonyl]-26-decarboxyvancomycin and its degradation products using an HPLC system with a photodiode array detector (Agilent 1100 or 1200 HPLC System; Agilent Technologies Inc., Santa Clara, Calif. 95051) controlled with chromatography data software (Empower Software, Waters Corporation, Milford, Mass. 01757). All solvents were HPLC grade and were purchased from Honeywell Burdick & Jackson (Muskegon, Mich. 49442). Phosphoric acid (85% w/w) and sodium dihydrogen phosphate were HPLC grade and were purchased from Fluka (Sigma-Aldrich, St. Louis, Mo. 63103). All reagents were used without further purification.
(§2) Test samples were filtered through a 0.2 μm polyvinylidene fluoride (PVDF) filter before analysis and the first 1 mL was discarded.
(§3) Test sample purity was determined based on the integrated peak area (area-under-the-curve or AUC) for the compound as a percentage of all integrated peaks. The concentration (assay value) of the compound in a test sample was determined by comparison with a reference standard.
(§4) Two racks containing six vials of each type of stability sample (Examples 12A-F; 6×6=36 vials) were prepared. One rack was stored protected from light in a drawer at room temperature and the other rack was stored in a refrigerator at 2 to 8° C. A representative vial of each type of stability sample was analyzed by HPLC after storage for 1, 3, 6 and 12 months to determine purity.

[2] = Storage stability of hydrochloride salts in a lyophilized composition containing sucrose and glycine (purity by HPLC); format: physicochemical
Experimental: as §1, §2, §3, §4

[3] = refrigerated temperature (2 to 8° C.), 6 months, dihydrochloride
[4] = refrigerated temperature (2 to 8° C.), time 0 months, monohydrochloride
[5] = room temperature, time 0 months, monohydrochloride

Purity (HPLC area percent) [1, 3]: 90.8% | Purity (HPLC area percent) ([2]; refrigerated temperature (2 to 8° C.), 1 month, dihydrochloride): 89.8% | Purity (HPLC area percent) [2, 3]: 90.8% | Purity (HPLC area percent) ([2]; refrigerated temperature (2 to 8° C.), time 0 months, dihydrochloride): 90.6% | Purity (HPLC area percent) ([2]; room temperature, 1 month, dihydrochloride): 89.8% | Purity (HPLC area percent) ([2]; room temperature, 3 months, dihydrochloride): 87.7% | Purity (HPLC area percent) ([2]; room temperature, 6 months, dihydrochloride): 90.8% | Purity (HPLC area percent) ([2]; room temperature, 12 months, dihydrochloride): 83.8% | Purity (HPLC area percent) ([2]; room temperature, time 0 months, dihydrochloride): 90.6%
SMILES: CN[C@H](CC(C)C)C(=O)NC1C(=O)N[C@@H](CC(N)=O)C(=O)N[C@H]2C(=O)N[C@H]3C(=O)N[C@H](C(=O)N[C@H](C(=O)NCCCO/N=C(\C(=O)N[C@@H]4C(=O)N5C(C(=O)[O-])=C(C[n+]6ccccc6)CS[C@H]45)c4nc(N)sc4Cl)c4cc(O)cc(O)c4-c4cc3ccc4O)[C@H](O)c3ccc(c(Cl)c3)Oc3cc2cc(c3O[C@@H]2O[C@H](CO)[C@@H](O)[C@H](O)[C@H]2O[C@H]2C[C@](C)(N)[C@H](O)[C@H](C)O2)Oc2ccc(cc2Cl)[C@H]1O (stereo partly drawn) [Dihydrochloride, 26-[[[3-[[(Z)-[1-(2-amino-5-chloro-4-thiazolyl)-2-[[(6R,7R)-2-carboxy-8-oxo-3-(pyridiniomethyl)-5-thia-1-azabicyclo[4.2.0]oct-2-en-7-yl]amino]-2-oxoethylidene]amino]oxy]propyl]amino]carbonyl]-26-decarboxyvancomycin dihydrochloride]

Purity (HPLC area percent) ([1]; refrigerated temperature (2 to 8° C.), 6 months, monohydrochloride): 90.4% | Purity (HPLC area percent) [1, 4]: 90.4% | Purity (HPLC area percent) ([1]; room temperature, time 0 months, listed as Mono HCl, monohydrochloride): 90.4% | Purity (HPLC area percent) [1, 5]: 90.4% | Purity (HPLC area percent) [2, 4]: 90.4% | Purity (HPLC area percent) ([2]; room temperature, 3 months, monohydrochloride): 86.9% | Purity (HPLC area percent) ([2]; room temperature, 6 months, monohydrochloride): 87.9% | Purity (HPLC area percent) ([2]; room temperature, 12 months, monohydrochloride): 81.5% | Purity (HPLC area percent) [2, 5]: 90.4%
SMILES: CN[C@H](CC(C)C)C(=O)N[C@H]1C(=O)N[C@@H](CC(N)=O)C(=O)N[C@H]2C(=O)N[C@H]3C(=O)N[C@H](C(=O)N[C@H](C(=O)NCCCO/N=C(\C(=O)N[C@@H]4C(=O)N5C(C(=O)[O-])=C(C[n+]6ccccc6)CS[C@H]45)c4nc(N)sc4Cl)c4cc(O)cc(O)c4-c4cc3ccc4O)[C@H](O)c3ccc(c(Cl)c3)Oc3cc2cc(c3O[C@@H]2O[C@H](CO)[C@@H](O)[C@H](O)[C@H]2O[C@H]2C[C@](C)(N)[C@H](O)[C@H](C)O2)Oc2ccc(cc2Cl)[C@H]1O [Monohydrochloride, 26-[[[3-[[(Z)-[1-(2-amino-5-chloro-4-thiazolyl)-2-[[(6R,7R)-2-carboxy-8-oxo-3-(pyridiniomethyl)-5-thia-1-azabicyclo[4.2.0]oct-2-en-7-yl]amino]-2-oxoethylidene]amino]oxy]propyl]amino]carbonyl]-26-decarboxyvancomycin monohydrochloride]

Purity (HPLC area percent) ([2]; refrigerated temperature (2 to 8° C.), 3 months, Trihydrochloride): 90.8%
SMILES: CN[C@H](CC(C)C)C(=O)NC1C(=O)N[C@@H](CC(N)=O)C(=O)N[C@H]2C(=O)N[C@H]3C(=O)N[C@H](C(=O)N[C@H](C(=O)NCCCO/N=C(\C(=O)N[C@@H]4C(=O)N5C(C(=O)[O-])=C(C[n+]6ccccc6)CS[C@H]45)c4nc(N)sc4Cl)c4cc(O)cc(O)c4-c4cc3ccc4O)[C@H](O)c3ccc(c(Cl)c3)Oc3cc2cc(c3O[C@@H]2O[C@H](CO)[C@@H](O)[C@H](O)[C@H]2O[C@H]2C[C@](C)(N)[C@H](O)[C@H](C)O2)Oc2ccc(cc2Cl)[C@H]1O (stereo partly drawn) [Trihydrochloride, 26-[[[3-[[(Z)-[1-(2-Amino-5-chloro-4-thiazolyl)-2-[[(6R,7R)-2-carboxy-8-oxo-3-(pyridiniomethyl)-5-thia-1-azabicyclo[4.2.0]oct-2-en-7-yl]amino]-2-oxoethylidene]amino]oxy]propyl]amino]carbonyl]-26-decarboxyvancomycin Trihydrochloride, reference compound]
